Tests used:
[1] = tail vein blood prior to injury, 4 hours after injury/before treatment and 3 hours after treatment; n=3 per group; insulin to upper third of nasal cavity; FIG. 5
[2] = weighed on days 1, 7, 14 and 21 post-injury; intranasal, once a day

For insulin, which “blood glucose, insulin rats vs saline rats” value [1] is on record?
The value was “no significant difference in blood glucose”.

What about the “weight, insulin rats vs saline rats” value [2] of the same substance?
The value was “no significant difference in weight”.
